From patent publication US6476021B1 (priority 1997, dated 2002)

The chains behind the UniProt entries cited, without tags or fusion partners. Residues count along the entry.
UniProt P11541, 2-856: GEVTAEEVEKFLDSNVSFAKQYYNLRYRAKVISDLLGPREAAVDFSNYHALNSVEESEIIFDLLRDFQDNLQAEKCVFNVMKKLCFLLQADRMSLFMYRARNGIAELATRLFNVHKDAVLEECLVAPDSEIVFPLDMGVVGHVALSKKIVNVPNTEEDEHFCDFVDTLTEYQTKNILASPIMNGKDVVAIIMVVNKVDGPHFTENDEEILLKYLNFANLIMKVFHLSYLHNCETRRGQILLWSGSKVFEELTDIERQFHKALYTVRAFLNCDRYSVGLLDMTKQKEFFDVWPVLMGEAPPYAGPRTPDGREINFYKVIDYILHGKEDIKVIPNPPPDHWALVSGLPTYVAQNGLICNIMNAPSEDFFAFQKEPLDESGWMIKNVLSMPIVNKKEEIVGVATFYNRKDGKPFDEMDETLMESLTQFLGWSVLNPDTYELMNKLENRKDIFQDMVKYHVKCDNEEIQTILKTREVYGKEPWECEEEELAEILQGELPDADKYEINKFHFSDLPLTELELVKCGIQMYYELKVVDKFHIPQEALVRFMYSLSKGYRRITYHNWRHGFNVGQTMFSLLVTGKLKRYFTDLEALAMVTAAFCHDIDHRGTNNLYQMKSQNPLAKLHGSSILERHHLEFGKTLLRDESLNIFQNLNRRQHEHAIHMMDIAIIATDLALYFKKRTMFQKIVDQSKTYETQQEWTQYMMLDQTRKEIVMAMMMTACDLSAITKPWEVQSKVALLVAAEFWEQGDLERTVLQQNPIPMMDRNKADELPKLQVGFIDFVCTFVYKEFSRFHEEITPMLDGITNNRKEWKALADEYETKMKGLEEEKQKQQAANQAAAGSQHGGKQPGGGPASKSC
UniProt P23439, 2-850: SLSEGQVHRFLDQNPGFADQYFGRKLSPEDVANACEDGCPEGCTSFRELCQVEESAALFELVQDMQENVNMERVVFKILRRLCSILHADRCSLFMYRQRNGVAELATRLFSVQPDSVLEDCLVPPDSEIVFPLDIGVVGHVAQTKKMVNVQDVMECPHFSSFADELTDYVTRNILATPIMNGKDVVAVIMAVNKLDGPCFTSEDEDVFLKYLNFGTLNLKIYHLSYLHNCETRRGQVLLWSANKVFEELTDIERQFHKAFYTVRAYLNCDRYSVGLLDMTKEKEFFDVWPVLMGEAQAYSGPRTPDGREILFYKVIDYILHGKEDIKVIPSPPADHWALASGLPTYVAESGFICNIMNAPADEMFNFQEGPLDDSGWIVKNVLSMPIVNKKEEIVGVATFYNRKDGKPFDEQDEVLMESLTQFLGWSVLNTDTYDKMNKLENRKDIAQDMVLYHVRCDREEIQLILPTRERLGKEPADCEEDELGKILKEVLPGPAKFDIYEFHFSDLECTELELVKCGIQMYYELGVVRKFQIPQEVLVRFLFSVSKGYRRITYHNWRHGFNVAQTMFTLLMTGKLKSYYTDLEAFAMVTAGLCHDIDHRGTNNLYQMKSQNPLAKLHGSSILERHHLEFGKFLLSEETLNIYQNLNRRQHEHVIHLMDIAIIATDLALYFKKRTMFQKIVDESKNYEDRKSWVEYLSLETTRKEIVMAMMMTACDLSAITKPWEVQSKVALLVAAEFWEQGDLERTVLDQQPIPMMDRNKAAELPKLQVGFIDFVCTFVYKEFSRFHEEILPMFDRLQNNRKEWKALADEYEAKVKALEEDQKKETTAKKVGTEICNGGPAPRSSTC

What was measured:
PDE type V = PDE type V (Canis lupus familiaris, UniProt O77746); test: biochemical
PDE type VI = PDE type VI (Bos taurus, UniProt P11541+P23439); test: biochemical

| SMILES | pIC50 (PDE type V) | pIC50 (PDE type VI) |
| --- | --- | --- |
| O=c1c(Cc2cccnc2)cn2c3cc(Br)ccc3c(=O)c3cc(OCCCO)cc1c32 [Example 34, 10-bromo-5-(3-hydroxypropyloxy)-2-(3-pyridylmethyl)-3H,7H-pyrido[3,2,1-de]acridin-3,7-dione] | 8.60 | 7.60 |
| O=c1c(Cc2cccnc2)cn2c3c(cc(OCc4ccccn4)cc13)Sc1ccc(Br)cc1-2 [Example 44, 10-bromo-2-(3-pyridylmethyl)-5-(2-pyridylmethyloxy)-3H-pyrido[3,2,1-kl]phenothiazin-3-one] | 8.39 | 7.42 |
| O=c1c(Cc2cccnc2)cn2c3c(cc(OCCN4CCCCC4)cc13)Sc1ccc(Br)cc1-2 [Example 50] | 7.96 | 6.60 |

pIC50: −log10 of the molar value.
